In patent US20200129597A1, “MODULATION OF FACTOR Xa INHIBITOR-MEDIATED BLOOD LOSS BY PARTIAL AND TRANSIENT ADMINISTRATION OF ANTIDOTE” (Portola Pharmaceuticals, Inc., priority 2012, published 2020):

Key:
[1] = Single ascending dose study in healthy volunteers: pharmacokinetics; format: in vivo, human
[2] = Phase 2 trial: anti-fXa activity (chromogenic assay) after apixaban and r-Antidote; format: in vivo, human
Text: (§1) Pharmacodynamic and safety data are collected through Day 48 and PK through Day 10. A chromogenic assay was used to determine anti-fXa activity.

blood loss = assay: Mouse tail transection blood loss model; format: in vivo; conditions: Treat-V: ASA+rivaroxaban+r-Antidote 0.96 mg/mouse IV; mean±SD
Experimental: Mice (n=5-8/group) were first dosed orally with vehicle or aspirin at ˜100 mg/kg/day for 5 days. Rivaroxaban (50 mg/kg) or vehicle (5 mL/kg) was then dosed orally.
For the mouse tail transection blood loss model, mice (male, C57BL/6, Charles River) were first treated with aspirin at ˜100 mg/kg/day for 5 days via drinking water.

prothrombin time (PT) = assay: Prothrombin time in human plasma in vitro; format: biochemical
Experimental: The lines represent the best fittings; Kd and Ki values are listed. mOD min^−1=miliOptical Density per minute. […] Grey bar: Control plasma alone (PPP), Filled bar: rivaroxaban or rivaroxaban+r-antidote, Open bar: Control plasma+r-antidote. […] Thrombin generation was initiated by addition of Ca^2+ and tissue factor (TF). Cleavage of thrombin specific substrate Z-GGR-AMC (RFU=Relative Fluorescence Units) was measured at 37° C. for 10 min.
(§2) For human in vitro and rat ex vivo experiments, PT was measured using MLA Electra 800 automatic coagulation timer. Innovin was automatically dispensed to plasma samples (100 μL) per manufacturer's instructions. […] For rabbit experiments, PT and aPTT were measured using a Beckman Coulter ACL Elite instrument with HemosIL reagents (available commercially from Instrumentation Laboratories). Whole blood INR (International Normalized Ratio) for animal samples were measured by Hemchron Jr. Signature Cartridges (International Technidyne Corporation) according to manufacturer's instructions.

[3] = Single ascending dose study: safety
[4] = Plasma levels of r-Antidote in rats (ELISA); format: in vivo, rat; conditions: for Peak Plasma Concentration: rat
Experimental: Then, tail transection was initiated another 5 min later, and cumulative blood loss was measure for up to 45 minutes.
Anesthetized rats were administered enoxaparin (4.5 mg/kg) or vehicle by I.V. bolus injection followed by tail transection (2 mm from tip) 5 minutes later. […] The tip of the tail was placed in physiologic saline at 37° C. and blood collected for an additional 45 minutes after tail transection. Blood was lysed by diluting in water and freezing at −80° C. overnight. […] Anti-fXa activity of enoxaparin was measured using a modified chromogenic LMW heparin kit. Tissue factor (TF)-initiated thrombin generation was carried out in human plasma using a fluorogenic thrombin substrate by measurement of change of relative fluorescence unit (RFU) for 10 min following initiation of the reaction.

Phase 2 trial: safety = assay: Phase 2 trial: safety
Text: as §1

[5] = Anti-fXa activity in mouse plasma after rivaroxaban and r-Antidote; format: in vivo; conditions: Treat-V, r-Antidote 0.96 mg/mouse
Experimental: Anti-fXa activity was measured using an adapted assay using reagents from a commercial Heparin kit (available from Coamatic, DiaPharma). […] Bovine fXa and 52732 fXa substrate were reconstituted according to manufacturer's instructions. The reaction mixture contained 75 μL citrated plasma sample or standard, 50 μL substrate S2732. Following pre-incubation at RT for 30 min, 25 μL, bovine fXa was added to the mixture and residual fXa activity was determined by measuring cleavage of substrate at RT for 5 min. The reaction was quenched by adding 20% acetic acid (50 μL). The standard curves were constructed with known concentrations of each individual anticoagulant.

whole blood INR = assay: Whole blood INR in fXa inhibitor infused rats; format: in vivo; conditions: r-Antidote IV bolus 4 mg/rat, sustained by 4 mg/hr infusion; rivaroxaban rats
Experimental: Whole blood INR (mean±SD, n=4/group) was measured by Hemochron Jr microcoagulation system. […] Whole blood INR (mean±SD, n=4/group) is presented. […] Whole blood INR (mean±SD, n=5-6/group) is presented. […] INR=international normalized ratio; min=minute.
as §2
Upon cessation of infusion, coagulation marker in the vehicle treated group decreased gradually due to clearance of circulating inhibitor. […] Baseline values in rat blood correspond to an INR of 2.2 rather than 1, since the cartridges used for measurement are calibrated for human use. […]
Blood sampling catheter patency was maintained by slow infusion of normal saline. […] Total fXa inhibitor concentration was measured by HPLC with tandem mass spectrometry.

B1: r-Antidote: processed two-chain polypeptide of SEQ ID NO: 3; modified, catalytically inactive human recombinant fXa lacking the Gla domain (protein)
chain: ANSFLFWNKYKDGDQCETSPCQNQGKCKDGLGEYTCTCLEGFEGKNCELFTRKLCSLDNGDCDQFCHEEQNSVVCSCARGYTLADNGKACIPTGPYPCGKQTLERIVGGQECKDGECPWQALLINEENEGFCGGTILSEFYILTAAHCLYQAKRFKVRVGDRNTEQEEGGEAVHEVEVVIKHNRFTKETYDFDIAVLRLKTPITFRMNVAPACLPERDWAESTLMTQKTGIVSGFGRTHEKGRQSTRLKMLEVPYVDRNSCKLSSSFIITQNMFCAGYDTKQEDACQGDAGGPHVTRFKDTYFVTGIVSWGEGCARKGKYGIYTKVTAFLKWIDRSMKTRGLPKAKSHAPEVITSSPLK
modifications: processed two-chain form
Cmax ([1]; 600 mg dose): 2.2 µM
AUC and Cmax dose proportionality ([1]; 30, 90, 300, 600 mg): increased disproportionately relative to dose
terminal t½ ([1]; healthy volunteers, single IV bolus 30-600 mg): ~6 h
change of mean anti-fXa activity ([2]; 10 minutes post r-Antidote 90 mg): −47%
change of mean anti-fXa activity ([2]; 30 minutes post r-Antidote 90 mg): −29%
change of mean anti-fXa activity ([2]; 60 minutes post r-Antidote 90 mg): −17%
change of mean anti-fXa activity ([2]; two minutes after r-Antidote 90 mg bolus, apixaban 5 mg bid, n=4): −65%
blood loss (blood loss): 163 ± 82 µL
correction of rivaroxaban PT prolongation (prothrombin time (PT); approximately equal molar concentration of r-Antidote, rivaroxaban 1 μM): corrected to baseline levels
effect of r-Antidote alone on clotting time (prothrombin time (PT); highest concentration tested): did not change clotting time
non-serious infusion-related reactions without anaphylaxis (number) ([3]; 90 mg (2) and 300 mg (1)): 3
thrombotic adverse events or deaths ([3]; healthy volunteers, 30-600 mg): no thrombotic adverse events or deaths
Prothrombin fragment 1+2, thrombin-antithrombin complex, and D-dimer ([3]; in vivo): increased with dose
serious adverse events (number) ([3]; pneumonia, 30 mg): 1
Peak Plasma Concentration ([4]; r-Antidote 0.5 mg bolus): 0.45 µM
Peak Plasma Concentration ([4]; r-Antidote 1 mg bolus): 1.1 µM
Peak Plasma Concentration ([4]; r-Antidote 2 mg bolus): 1.8 µM
Peak Plasma Concentration ([4]; r-Antidote 4 mg bolus): 4.3 µM
half life of r-Antidote ([4]; rats): about 15 minutes
r-Antidote plasma ([4]; time point 20, r-Antidote 0.5 mg): 0.5 µM
r-Antidote plasma ([4]; time point 20, r-Antidote 1 mg): 1.1 µM
r-Antidote plasma ([4]; time point 20, r-Antidote 2 mg): 1.8 µM
r-Antidote plasma ([4]; time point 20, r-Antidote 4 mg): 4.3 µM
r-Antidote plasma ([4]; time point 30, r-Antidote 0.5 mg): 0.3 µM
r-Antidote plasma ([4]; time point 30, r-Antidote 1 mg): 0.6 µM
r-Antidote plasma ([4]; time point 30, r-Antidote 2 mg): 1.2 µM
r-Antidote plasma ([4]; time point 30, r-Antidote 4 mg): 2.4 µM
r-Antidote plasma ([4]; time point 45, r-Antidote 0.5 mg): 0.2 µM
r-Antidote plasma ([4]; time point 45, r-Antidote 1 mg): 0.4 µM
r-Antidote plasma ([4]; time point 45, r-Antidote 2 mg): 0.6 µM
r-Antidote plasma ([4]; time point 45, r-Antidote 4 mg): 1.3 µM
r-Antidote plasma ([4]; time point 60, r-Antidote 0.5 mg): 0.1 µM
r-Antidote plasma ([4]; time point 60, r-Antidote 1 mg): 0.2 µM
r-Antidote plasma ([4]; time point 60, r-Antidote 2 mg): 0.3 µM
r-Antidote plasma ([4]; time point 60, r-Antidote 4 mg): 0.7 µM
thrombotic or allergic-type adverse events, serious adverse events, deaths (Phase 2 trial: safety; first dose cohort, 9 subjects): no thrombotic or allergic-type adverse events, serious adverse events, or deaths
TFPI, F1+F2 and D-dimer (Phase 2 trial: safety; in vivo): transient reduction in tissue factor pathway inhibitor (TFPI) and increase in F1+F2, but no change in D-dimer
subjects experiencing one or more adverse events (all mild) (Phase 2 trial: safety; in vivo): 5/9
reduction of rivaroxaban anticoagulant activity as measured by anti-fXa activity [5]: > 80%
reversal of whole blood INR (whole blood INR): rapidly and completely reversed to baseline values
